Results as given in PubChem BioAssay (Tox21).
The list shows a part of the results, in another mix than the full data. Records with an inconclusive call do not appear. Active and inactive are the calls of the source. Unless noted, calls come from the whole dose curve; as a rule, active = well fitted curve in the direction sought with a large enough effect in the repeat runs; inconclusive = weak or mixed curves; inactive = no such curve, though single readings can be large; an effect the other way counts as inactive or inconclusive.

Chains of the proteins cited; added tags and fusions are not shown. Lines headed by an entry give the natural chain unless they say otherwise; changes in a name come on top.
UniProt P03372, whole entry, looked up: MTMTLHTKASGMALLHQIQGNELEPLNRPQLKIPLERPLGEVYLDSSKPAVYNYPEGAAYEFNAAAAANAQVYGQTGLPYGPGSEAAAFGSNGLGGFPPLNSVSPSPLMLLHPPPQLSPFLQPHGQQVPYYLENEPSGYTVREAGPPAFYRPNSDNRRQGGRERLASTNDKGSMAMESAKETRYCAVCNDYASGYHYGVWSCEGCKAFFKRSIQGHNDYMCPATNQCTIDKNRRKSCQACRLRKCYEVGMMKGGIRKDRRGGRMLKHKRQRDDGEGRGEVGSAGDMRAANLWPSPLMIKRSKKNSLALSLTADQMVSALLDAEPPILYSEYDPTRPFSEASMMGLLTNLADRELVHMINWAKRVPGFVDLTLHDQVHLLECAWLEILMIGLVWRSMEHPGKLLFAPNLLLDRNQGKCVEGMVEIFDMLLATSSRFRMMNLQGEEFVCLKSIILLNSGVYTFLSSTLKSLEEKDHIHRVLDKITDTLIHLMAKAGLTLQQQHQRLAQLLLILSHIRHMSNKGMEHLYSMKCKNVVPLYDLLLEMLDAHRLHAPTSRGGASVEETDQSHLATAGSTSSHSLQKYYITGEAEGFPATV
UniProt Q92731, whole entry, looked up: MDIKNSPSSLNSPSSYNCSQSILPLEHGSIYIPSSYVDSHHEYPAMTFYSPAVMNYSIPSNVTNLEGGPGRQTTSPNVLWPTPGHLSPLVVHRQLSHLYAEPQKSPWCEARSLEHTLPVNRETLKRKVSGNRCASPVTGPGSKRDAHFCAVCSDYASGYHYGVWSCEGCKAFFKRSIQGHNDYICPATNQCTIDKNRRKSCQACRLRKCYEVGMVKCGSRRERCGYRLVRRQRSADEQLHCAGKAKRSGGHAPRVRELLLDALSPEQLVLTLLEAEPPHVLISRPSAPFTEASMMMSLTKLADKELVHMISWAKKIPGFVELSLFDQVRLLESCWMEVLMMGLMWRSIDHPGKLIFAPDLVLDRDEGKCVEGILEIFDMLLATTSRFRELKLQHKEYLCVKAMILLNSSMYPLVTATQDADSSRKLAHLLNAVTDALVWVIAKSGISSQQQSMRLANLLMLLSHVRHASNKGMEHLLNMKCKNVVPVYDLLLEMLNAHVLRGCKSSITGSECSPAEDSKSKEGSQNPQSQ
UniProt P10275: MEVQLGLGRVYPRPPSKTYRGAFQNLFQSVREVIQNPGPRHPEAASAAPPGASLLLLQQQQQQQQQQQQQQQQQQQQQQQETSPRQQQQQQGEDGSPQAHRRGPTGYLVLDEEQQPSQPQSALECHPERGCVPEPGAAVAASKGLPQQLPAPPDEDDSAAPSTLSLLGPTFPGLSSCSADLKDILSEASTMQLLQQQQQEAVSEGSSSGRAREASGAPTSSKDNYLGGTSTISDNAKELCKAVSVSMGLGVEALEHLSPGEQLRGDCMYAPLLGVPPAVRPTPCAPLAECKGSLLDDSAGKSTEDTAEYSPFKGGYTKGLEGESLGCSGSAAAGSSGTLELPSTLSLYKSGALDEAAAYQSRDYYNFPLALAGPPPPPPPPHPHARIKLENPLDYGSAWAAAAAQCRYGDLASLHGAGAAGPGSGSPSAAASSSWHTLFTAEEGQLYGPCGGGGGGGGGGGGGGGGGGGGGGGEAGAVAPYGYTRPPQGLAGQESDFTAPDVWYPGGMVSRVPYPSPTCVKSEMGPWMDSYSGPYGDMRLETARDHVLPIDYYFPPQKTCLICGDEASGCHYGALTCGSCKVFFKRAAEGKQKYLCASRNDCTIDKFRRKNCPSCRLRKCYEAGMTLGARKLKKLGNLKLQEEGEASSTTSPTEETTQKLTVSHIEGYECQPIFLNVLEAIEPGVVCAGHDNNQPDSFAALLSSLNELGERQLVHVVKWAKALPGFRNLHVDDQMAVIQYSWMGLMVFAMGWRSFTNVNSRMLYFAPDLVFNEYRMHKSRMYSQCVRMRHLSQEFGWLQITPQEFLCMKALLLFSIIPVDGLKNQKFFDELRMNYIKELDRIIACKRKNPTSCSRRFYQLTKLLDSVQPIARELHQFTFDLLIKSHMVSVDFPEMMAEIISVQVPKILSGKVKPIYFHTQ

What was measured:
[1] = A CellTox Green Cytotoxicity Assay to monitor cytotoxicity in HEK293 cells - 0 hour (AID 1224869); settings: CellTox Green fluorescence; at 76.8 µM (top of the series) unless noted; note: nearly all actives have a fitted effect of over 50% in size
Summary of the method: (§1)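 Cells (HEK293, 600/well) and dye reagent are dispensed together. After 5 h at 37 C, 23 nL compound is pinned in. Plates stay at 37 C for 40 h with fluorescence read at 0h, 8h, 16h, 24h, 32h and 40h.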

[2] = qHTS RealTime-Glo MT Cell Viability Assay in HepG2 cells - 40 hour (AID 1224870); note: nearly all actives have a fitted effect of over 50% in size
Summary of the method: (§2)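 Real-time viability: cells seeded at 600 per well together with NanoLuc and cell-permeant prosubstrate, compounds added after 5 h incubation. Luminescence tracked at 0, 8, 16, 24, 32 and 40 h of exposure.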

[3] = A CellTox Green Cytotoxicity Assay to monitor cytotoxicity in HEK293 cells - 40 hour (AID 1224871); note: nearly all actives have a fitted effect of over 45% in size
Summary of the method: as §1

[4] = qHTS RealTime-Glo MT Cell Viability Assay in HEK293 cells - 16 hour (AID 1224872); note: top concentration of the series differs between compounds; nearly all actives have a fitted effect of over 50% in size
Summary of the method: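 Cells + reagent dispensed (600 cells/well, HEK293) → 5 h at 37 C/5% CO2 → 23 nL compound in DMSO pinned → 40 h at 37 C → luminescence read at 0, 8, 16, 24, 32, 40 h.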

[5] = qHTS RealTime-Glo MT Cell Viability Assay in HepG2 cells - 8 hour (AID 1224873); note: nearly all actives have a fitted effect of over 55% in size
Summary of the method: as §2

[6] = qHTS RealTime-Glo MT Cell Viability Assay in HEK293 cells - 40 hour (AID 1224874); settings: RealTime-Glo luminescence; max response: active compounds read low; note: nearly all actives have a fitted effect of over 50% in size
Summary of the method: (§3)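 Real-time viability in HEK293: signal arises when living cells convert a prosubstrate for NanoLuc in the medium, so luminescence tracks viable cell number. Compound (23 nL, DMSO) added 5 h post-seeding; kinetic reads at 0–40 h, 37 C.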

[7] = A CellTox Green Cytotoxicity Assay to monitor cytotoxicity in HEK293 cells - 32 hour (AID 1224881); note: nearly all actives have a fitted effect of over 40% in size
Summary of the method: as §1

[8] = qHTS RealTime-Glo MT Cell Viability Assay in HEK293 cells - 8 hour (AID 1224887)
Summary of the method: as §3

[9] = A CellTox Green Cytotoxicity Assay to monitor cytotoxicity in HEK293 cells - 16 hour (AID 1224888); note: nearly all actives have a fitted effect of over 35% in size
Summary of the method: as §1

[10] = A CellTox Green Cytotoxicity Assay to monitor cytotoxicity in HepG2 cells - 8 hour (AID 1224890); note: nearly all actives have a fitted effect of over 45% in size
Summary of the method: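 Cells and non-lytic dye reagent are dispensed together (600 HepG2 cells/well) and incubated 5 h before DMSO compound transfer. Kinetic fluorescence is then recorded in the same wells during 40 h at 37 C.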

[11] = qHTS assay to identify small molecule antagonists of the estrogen receptor alpha (ER-alpha) signaling pathway using the BG1 cell line in the presence of 0.1 nM 17-beta-estradiol - cell viability counter screen (AID 1259241); note: nearly all actives have a fitted effect of over 40% in size
Summary of the method: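 Viability in VM7Luc4E2 cells after 22 hr compound exposure under 0.1 nM 17beta-estradiol stimulation, by CellTiter-Fluor.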

[12] = biological target: Estrogen receptor (Homo sapiens) (UniProt P03372); assay: qHTS assay to identify small molecule antagonists of the estrogen receptor alpha (ER-alpha) signaling pathway using the BG1 cell line in the presence of 0.1 nM 17-beta-estradiol (AID 1259244); settings: VM7Luc4E2 (BG1) ERE-luciferase, antagonist mode, 0.1 nM E2, 22 h; at 92.4 µM (top of the series) unless noted; note: nearly all actives have a fitted effect of over 50% in size
[13] = qHTS assay to identify small molecule agonists of the sonic hedgehog signaling (Shh) pathway - cell viability counter screen (AID 1259366); note: nearly all actives have a fitted effect of over 50% in size
Summary of the method: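 Stable Gli1-Luc NIH/3T3 clone, 2,000 cells/well. Compound exposure 24hr at 37C. Read-out: CellTiter-Fluor fluorescence.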

[14] = qHTS assay to identify small molecule antagonists of the sonic hedgehog signaling (Shh) pathway - cell viability counter screen (AID 1259367); note: nearly all actives have a fitted effect of over 55% in size
Summary of the method: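 CellTiter-Fluor signal in conditioned medium-stimulated 3T3 Gli1-Luc cells, 23 hr compound exposure, 37C.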

[15] = qHTS assay to identify small molecule agonists of the sonic hedgehog signaling (Shh) pathway (AID 1259368; calls by dose curve;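 note: NIH/3T3-derived 3T3Gli1-Luc cells carrying a stable Gli1-driven firefly luciferase reporter; nearly all actives have a fitted effect of over 15% in size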); settings: NIH/3T3 Gli1-Luc reporter, luciferase, 24 h, active compounds read high; at 92.4 µM (top of the series) unless noted
Summary of the method: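 Cells of a mouse NIH/3T3 clone stably expressing luciferase under the Gli1 transcriptional response element are exposed to test chemicals for 24 hr at 37 C. Pathway activation is detected as a rise in luminescence.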

[16] = qHTS assay to identify small molecule antagonists of the sonic hedgehog signaling (Shh) pathway (AID 1259369; calls by dose curve; note: nearly all actives have a fitted effect of over 45% in size)
Summary of the method: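 Cells are plated and held 4hr at 37 C, compounds (DMSO) are pinned in, conditioned medium is added to stimulate the pathway, and after 24hr luciferase reagent is added for 30min before luminescence is read.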

[17] = biological target: Estrogen receptor beta (Homo sapiens) (UniProt Q92731); assay: qHTS assay to identify small molecule agonists of the estrogen receptor beta (ER-beta) signaling pathway (AID 1259377; active = well fitted activation curve with a large enough effect in the signal ratio in the repeat runs, not every such curve was filed as active; the % refers to the signal ratio); settings: ER-beta-UAS-bla HEK293T, beta-lactamase FRET ratio, 16 h; at 92.4 µM (top of the series) unless noted
[18] = qHTS assay to identify small molecule agonists of the androgen receptor (AR) signaling pathway in the presence of an antagonist - cell viability counter screen (AID 1259379);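 note: MDA-kb2 human breast cancer cells carrying an MMTV luciferase reporter; nearly all actives have a fitted effect of over 25% in size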
Summary of the method: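 Cytotoxicity is assessed by CellTiter-Fluor in MDA-kb2 cells carrying an MMTV-driven luciferase reporter. Cells receive 3.0uM nilutamide plus compounds at 15 concentrations and incubate 16 hr at 37C without CO2 before fluorescence reading.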

[19] = biological target: Androgen receptor (Homo sapiens) (UniProt P10275); assay: qHTS assay to identify small molecule antagonists of the androgen receptor (AR) signaling pathway using the MDA cell line in the presence of 0.5 nM R1881 (AID 1259243); note: nearly all actives have a fitted effect of over 50% in size
[20] = qHTS assay to identify small molecule antagonists of the estrogen related receptor (ERR) signaling pathway from Tox21 library (AID 1224848); note: nearly all actives have a fitted effect of over 50% in size
Summary of the method: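 ERR cell line, 2,000 cells/well. 6 h settle, then compound (DMSO) added; 18 h at 37 C; ONE-Glo luminescence after 30 min RT.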
% is set by controls: 0 for no effect and ±100 for the full control effect.

CCCCC(CC)CO[P+](=O)OCC(CC)CCCC (stereo not drawn)
inactive: cytotoxicity [1] -2.28% | Potency [2] | Potency [3] | Potency [4] | Potency [5] | max response [6] -5.72% | Potency [7] | Potency [8] | Potency [9] | Potency [10] | Potency [11] | activity change, negative = inhibition [12] 8.12% | Potency [13] | Potency [14] | activity change [15] -1.64% | Potency [16] | activation [17] 0.28% | Potency [18]

CC(C)CCCCCCCOP(OCCCCCCCC(C)C)Oc1ccccc1
inactive: cytotoxicity [1] 6.32% | Potency [2] | Potency [3] | Potency [4] | Potency [5] | max response [6] -19.5% | Potency [7] | Potency [8] | Potency [9] | Potency [10] | Potency [11] | activity change, negative = inhibition [12] -10.4% | Potency [13] | Potency [14] | activity change [15] 0.798% | Potency [16] | activation [17] -2.12% | Potency [18]

CCCCOP(OCCCC)OCCCC
inactive: cytotoxicity [1] -2.43% | Potency [2] | Potency [3] | Potency [4] | Potency [5] | max response [6] 0.902% | Potency [7] | Potency [8] | Potency [9] | Potency [10] | Potency [11] | Potency [19] | activity change, negative = inhibition [12] 0.422% | Potency [13] | Potency [14] | activity change [15] -1.13% | Potency [16] | activation [17] -3.12% | Potency [18]

CN(C(=O)Cc1ccccc1)[C@H]1CC[C@@]2(CCCO2)C[C@@H]1N1CCCC1
inactive: cytotoxicity [1] 0.572% [at 35.3 µM] | Potency [2] | Potency [3] | Potency [4] | Potency [5] | max response [6] 3.41% | Potency [7] | Potency [8] | Potency [9] | Potency [10] | Potency [11] | Potency [19] | activity change, negative = inhibition [12] 2.34% [at 42.5 µM] | activity change [15] -0.423% [at 42.5 µM] | Potency [16] | activation [17] 8.95% [at 42.5 µM] | Potency [18]

O=[N+]([O-])c1ccc(S(=O)(=O)O)c([N+](=O)[O-])c1
inactive: cytotoxicity [1] 1.18% | Potency [2] | Potency [3] | Potency [4] | Potency [5] | max response [6] 7.22% | Potency [7] | Potency [8] | Potency [9] | Potency [10] | Potency [11] | Potency [14] | activity change [15] -2.17% | Potency [16] | Potency [18]

CCC(C)(OOC(C)(C)C)OOC(C)(C)C
inactive: activity, negative = inhibition [20] 18.8% [at 19 µM] | cytotoxicity [1] 1.72% [at 15.8 µM] | activity change, negative = cytotoxic [2] 22.9% [at 15.8 µM] | cytotoxicity increase [3] -11.6% [at 15.8 µM] | activity change, negative = cytotoxicity [4] 7.52% [at 15.8 µM] | viability change, negative = cytotoxic [5] -14.3% [at 15.8 µM] | max response [6] 11.2% | cytotoxicity increase [7] -11.7% [at 15.8 µM] | activity change, negative = cytotoxicity [8] 2.17% [at 15.8 µM] | activity change [9] -2.03% [at 15.8 µM, active compounds read high] | cytotoxicity increase [10] -22.2% [at 15.8 µM] | activity change, negative = cytotoxicity [11] 0.715% [at 19 µM] | activity change, negative = inhibition [12] -0.863% [at 19 µM] | viability change, negative = cytotoxic [13] -5.83% [at 19 µM] | viability change, negative = cytotoxic [14] 5.19% [at 19 µM] | activity change [15] -0.975% [at 18.9 µM] | activity change, negative = inhibition [16] 1.25% [at 19 µM] | activation [17] 0.386% [at 19 µM] | activity change, negative = cytotoxicity [18] 1.64% [at 19 µM]

ClP(Cl)c1ccccc1
inactive: cytotoxicity [1] 2.29% | Potency [2] | Potency [3] | Potency [4] | Potency [5] | max response [6] 1.55% | Potency [7] | Potency [8] | Potency [9] | Potency [10] | Potency [11] | activity change, negative = inhibition [12] 0.0296% | Potency [13] | Potency [14] | activity change [15] -1.16% | activation [17] 3.19% | Potency [18]
